{"source": "patent US11369659B2", "about": "“Method of enhancing a brain or cognitive function” (Brainon Inc., priority 2015, dated 2022)", "key": {"[1]": {"system": "scopolamine-induced memory deterioration", "assay": "step-through passive avoidance test", "type": "in vivo", "conditions": "male ICR mice; peptide intraperitoneally 30 minutes before scopolamine; scopolamine 30 minutes before test; retention trial after 24 hours; compared with scopolamine-administered group", "protocol": "Louis, Mo., USA). 4-week-old male ICR mice were purchased from Korean BioLink Co. (Chungbuk, Korea). After an adaptation period of one week, the mice were used in a test and all reagents were administered intraperitoneally. […] A passive avoidance test was performed in the same bright room and dark room. A floor of each room was formed in a shape in which 2-mm stainless steel rods were separated from each other at 1-cm intervals. Bright squares (20×20×20 cm) had 100-W bulbs. These squares were connected to a guillotine door. For an acquisition trial, the mouse was placed in the bright room after injection of the reagents and the door was opened after 10 seconds. When the mouse completely entered the dark room, the door was closed and electric shock was applied for 3 seconds. A retention trial was performed after 24 hours of the acquisition trial and the mouse was positioned in the bright room. A latency time of the acquisition and retention trials was measured by a time until the mouse entered the dark room of the box after the door was opened. The retention latency in the passive avoidance test represents a long-term memory function in rodents."}, "[2]": {"system": "scopolamine-induced memory deterioration", "assay": "Y maze test", "type": "in vivo", "conditions": "male ICR mice; peptide intraperitoneally 30 minutes before scopolamine; scopolamine 30 minutes before test; compared with scopolamine-administered group", "protocol": "Scopolamine was purchased from Sigma-Aldrich (St. Louis, Mo., USA). 4-week-old male ICR mice were purchased from Korean BioLink Co. (Chungbuk, Korea). After an adaptation period of one week, the mice were used in a test and all reagents were administered intraperitoneally. Memory disorder was induced by injection of scopolamine before 30 minutes of the test and the synthesized peptides were injected before 30 minutes of the injection of scopolamine.\nThe mouse was placed at one end of a Y maze with a length of one branch of 30 cm, a width of 5 cm, and a height of 13 cm and the order of entry into each branch was recorded. Alternation was judged to be successful if the mouse sequentially entered three different branches. Spontaneous alternation was defined as Equation below. Spontaneous alternation (%)=the number of alternations/(total number of entries−2)×100"}}}
{"substance": "Peptide-I (AG)", "values": [{"measurement": "retention trial latency time (memory improving effect)", "setting": "[1]", "result": "slight improvement"}, {"measurement": "spontaneous alternation (memory improving effect)", "setting": "[2]", "result": "slight improvement"}]}
